In patent EP0478545B1, “1,2,4-BENZOTRIAZINE OXIDES AS RADIOSENSITIZERS AND SELECTIVE CYTOTOXIC AGENTS” (SRI INTERNATIONAL, priority 1989, dated 1991):

Tested on: HA-1 cells
Experiment: Hypoxic versus aerobic cytotoxicity from survival curves of cells in suspension culture

**Q.** For `Nc1n[n+]([O-])c2cc([N+](=O)[O-])ccc2[n+]1[O-]` [Compound 14, 7-nitro-3-amino-1,2,4-benzotriazine 1,4-dioxide], which “differential cytotoxicity against hypoxic cells compared to aerobic cells” value (HA-1 cells in vitro) is on record?
**A.** retaining the high differential cytotoxicity

**Q.** What about the “cytotoxicity against hypoxic HA-1 tumor cells in vitro” value (compared to 3-amino-1,2,4-benzotriazine 1,4-dioxide (22)) of the same molecule?
**A.** significantly enhanced cytotoxicity
